Reference: patent US5672588A, “Purine derivatives” (priority 1995, dated 1997)

The chains behind the UniProt entries cited, without tags or fusion partners.
UniProt P30543, whole entry: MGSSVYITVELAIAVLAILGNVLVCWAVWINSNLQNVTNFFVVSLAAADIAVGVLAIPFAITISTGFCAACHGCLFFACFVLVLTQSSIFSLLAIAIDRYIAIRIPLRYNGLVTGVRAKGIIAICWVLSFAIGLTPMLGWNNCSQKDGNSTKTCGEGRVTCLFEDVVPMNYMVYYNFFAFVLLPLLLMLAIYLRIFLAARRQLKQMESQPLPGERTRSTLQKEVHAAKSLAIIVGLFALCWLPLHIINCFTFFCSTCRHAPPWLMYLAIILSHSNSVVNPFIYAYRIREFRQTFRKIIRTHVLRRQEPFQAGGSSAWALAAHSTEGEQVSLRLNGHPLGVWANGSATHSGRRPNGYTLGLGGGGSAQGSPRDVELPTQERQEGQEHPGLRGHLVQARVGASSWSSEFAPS

Molecular target: T1, adenosine A2 receptor (Rattus norvegicus, UniProt P30543)
T1 construct: from tissue
Test: Adenosine A2 receptor binding in vitro, [3H]-CGS 21680 radioligand

Work on `C[C@H](Cc1ccccc1)Nc1ncnc2c1ncn2[C@@H]1O[C@H](CO)[C@@H](O)[C@H]1O` [(R)-PIA, N-(1-phenyl-2-propyl)adenosine, reference compound] yielded a Ki of 134 nM.
